# US20230015525A1, “Anaerobic Blood Storage and Pathogen Inactivation Method” (published 2023)
# Columns and labels:
# [1] = Degradation of S-303 in RBCs in a combined Hemanext oxygen reduction and Intercept incubation protocol (Example 11)
# [2] = background, cited from earlier work
# DNA and RNA = conditions: background; cited from earlier work
# [3] = Standard kinetics of decomposition of S-303 in red blood cells without Hemanext processing step (Example 12); conditions: for half-life of S-303: RBC
substance,measurement,setting,value
amustaline,Concentration of S-303,"[1]; Hemanext to Intercept, 1 hour",16267 ± 2517 nM
same,Concentration of S-303,"[1]; Hemanext to Intercept, 2 hours",1403 ± 121 nM
same,Concentration of S-303,"[1]; Hemanext to Intercept, 3 hours",124 ± 4 nM
same,Concentration of S-303,"[1]; Hemanext to Intercept, 4 hours",25 ± 4 nM
same,Concentration of S-303,"[1]; Hemanext to Intercept, 5 hours",2.3 ± 0.3 nM
same,Concentration of S-303,"[1]; Hemanext to Intercept, 6 hours",0.54 ± 0.06 nM
same,Concentration of S-303,"[1]; Hemanext to Intercept, Post transfer into bag 2",123300 ± 34468 nM
same,Concentration of S-303,"[1]; Hemanext to Intercept, timepoint Post S-303",239333 ± 5508 nM
same,Concentration of S-303,"[1]; Intercept to Hemanext, 1 hour",15900 ± 1212 nM
same,Concentration of S-303,"[1]; Intercept to Hemanext, 2 hours",1727 ± 426 nM
same,Concentration of S-303,"[1]; Intercept to Hemanext, 3 hours",61 ± 9 nM
same,Concentration of S-303,"[1]; Intercept to Hemanext, 4 hours",7 ± 1 nM
same,Concentration of S-303,"[1]; Intercept to Hemanext, 5 hours",1.5 ± 0.2 nM
same,Concentration of S-303,"[1]; Intercept to Hemanext, 6 hours",0.88 ± 0.16 nM
same,Concentration of S-303,"[1]; Intercept to Hemanext, Post transfer into bag 2",123333 ± 31754 nM
same,Concentration of S-303,"[1]; Intercept to Hemanext, timepoint Post S-303",217333 ± 10970 nM
same,time until degradation of excess S-303 into S-300 is complete,[2],16 to 18 h
same,half-life of residual S-303 decomposition,[2]; concentrations above 10 nM/L,about 20 minutes
same,time until formation of covalent DNA and RNA adducts is complete,DNA and RNA,approximately 30 minutes
same,half-life of S-303,"[3]; concentrations above 10 nmol/L, without volume exchange step",20 min
same,half-life of S-303,[3]; lower S-303 concentrations,greater than 6 hours
same,additional incubation time to decrease the level of S-303 below 1 nmol/L,"[3]; after the 6-hour timepoint, absence of the Hemanext processing step",12 h
same,residual S-303 at 6-hour incubation timepoint,"[3]; standard kinetics, absence of the Hemanext processing step",about 11 times the acceptance criterion of 1 nmol/L
